Measured values: ChEMBL document CHEMBL1144293, “4-(2-Pyridyl)piperazine-1-benzimidazoles as potent TRPV1 antagonists” (Bioorg Med Chem Lett, 2005)

By UniProt entry, the sequences of proteins in these tests, tags left out.
UniProt Q8NER1, whole entry: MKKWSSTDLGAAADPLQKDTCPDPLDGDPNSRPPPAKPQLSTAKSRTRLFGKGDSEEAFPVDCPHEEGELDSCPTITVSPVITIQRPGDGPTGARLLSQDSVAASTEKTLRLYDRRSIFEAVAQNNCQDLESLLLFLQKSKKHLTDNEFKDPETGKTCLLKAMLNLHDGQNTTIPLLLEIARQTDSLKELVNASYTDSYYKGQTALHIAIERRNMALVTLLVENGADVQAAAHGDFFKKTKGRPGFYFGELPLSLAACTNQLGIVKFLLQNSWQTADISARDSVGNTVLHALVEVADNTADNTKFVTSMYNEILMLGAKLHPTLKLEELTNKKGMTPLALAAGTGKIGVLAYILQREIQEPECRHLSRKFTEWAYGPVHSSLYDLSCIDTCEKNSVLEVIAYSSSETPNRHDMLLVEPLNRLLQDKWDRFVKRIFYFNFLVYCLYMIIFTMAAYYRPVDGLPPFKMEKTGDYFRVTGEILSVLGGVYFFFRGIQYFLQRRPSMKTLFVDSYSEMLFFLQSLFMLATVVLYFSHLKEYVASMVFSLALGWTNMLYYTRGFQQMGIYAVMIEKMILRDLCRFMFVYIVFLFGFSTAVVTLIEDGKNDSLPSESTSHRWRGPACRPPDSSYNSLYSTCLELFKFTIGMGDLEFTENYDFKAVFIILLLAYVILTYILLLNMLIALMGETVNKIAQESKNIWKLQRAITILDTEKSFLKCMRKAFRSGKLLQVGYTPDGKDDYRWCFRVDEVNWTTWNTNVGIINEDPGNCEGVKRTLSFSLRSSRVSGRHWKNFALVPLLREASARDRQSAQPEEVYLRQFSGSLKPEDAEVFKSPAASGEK

Tests used:
[1] = biological target: T1, Transient receptor potential cation channel subfamily V member 1 (Homo sapiens, UniProt Q8NER1); assay: Antagonist activity in pH 5.5-induced FLIPR assays in HEK293 cells expressing human TRPV1; assay type: functional, cell-based
Method in brief: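 Human TRPV1-expressing HEK293 line stimulated by low pH (pH 5.5) as agonist; antagonism measured as inhibition of calcium influx by FLIPR. IC50 reported as mean ± SEM from at least three determinations.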

[2] = biological target: T1, Transient receptor potential cation channel subfamily V member 1; assay: Antagonist activity in capsaicin-induced FLIPR assays in HEK293 cells expressing human TRPV1; assay type: functional, cell-based
Method in brief: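 HEK293 cells stably expressing human TRPV1; channel activated with 100 nM capsaicin and block of the calcium influx read on a fluorometric imaging plate reader (FLIPR). IC50 given as mean ± SEM of at least three determinations.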

Q: With `Cc1cc2nc(N3CCN(c4ncccc4Cl)CC3)[nH]c2cc1C` as the compound, how does the IC50 [1] read?
A: > 25000 nM

Q: What about the IC50 [2] of the same compound?
A: 726 nM
